Data on one substance can be found in patent US9890140B2, “Maleate salts of a quinazoline derivative useful as an antiangiogenic agent” (AstraZeneca AB, priority 2003, dated 2018).

Type in all cases: physicochemical
A short description of series [1]: Dynamic vapour sorption, moisture content at 80% RH. To be noted: 80% relative humidity. How it is done:
Dynamic Vapour Sorption Analytical Instrument: Surface Measurements Systems Dynamic Vapour Sorption Analyser. About 5 mg of material contained in a quartz holder at 25° C. was subjected to humidified nitrogen at the following relative humidities (RH): 0, 20, 40, 60, 80, 95, 80, 60, 40, 20, 0% RH in duplicate.

Series [2] in a line: Evidence of hydrate formation (vapour sorption or TGA). To be noted: vapour sorption (hysteresis, water absorption) or TGA. How it is done:
About 5 mg of material contained in a quartz holder at 25° C. was subjected to humidified nitrogen at the following relative humidities (RH): 0, 20, 40, 60, 80, 95, 80, 60, 40, 20, 0% RH in duplicate. Typically between 3 and 12 mg of material contained in a 70 μl alox (aluminium oxide) crucible was heated over the temperature range 25° C. to 325° C. at a constant heating rate of 10° C. per minute. A purge gas using helium was used—flow rate 50 ml per minute.

Series [3] can be described thus: Evidence for polymorphism from DSC thermograms. On the procedure:
Analytical Instrument: Mettler DSC820e. Typically less than 5 mg of material contained in a 40 μl aluminium pan fitted with a pierced lid was heated over the temperature range 25° C. to 325° C. at a constant heating rate of 10° C. per minute. A purge gas using nitrogen was used—flow rate 100 ml per minute.

A short description of series [4]: Crystallinity of AZD2171 salts.

Regarding Succinate, the Moisture Content at 80% RH in series [1] was determined as 11.4%. In addition, in series [2], the “Evidence of Hydrate Formation (Yes/No)” value is listed as “No”. Further, the “No of Polymorphs” value in series [3] is “≧2”. Moreover, in series [4], the “Crystalline (Yes/No)” value was “Yes”.
